Literature values in PMC11604869, “Stereoselective block of the hERG potassium channel by the Class Ia antiarrhythmic drug disopyramide” (Cellular and Molecular Life Sciences: CMLS, 2024).

Conditions: similar doses of each enantiomer

Structure (SMILES)	mean total plasma concentrations
CC(C)N(CC[C@@](C(N)=O)(c1ccccc1)c1ccccn1)C(C)C [R(−) disopyramide]	6.33 µM
CC(C)N(CC[C@](C(N)=O)(c1ccccc1)c1ccccn1)C(C)C [S(+) disopyramide]	6.86 µM
